Protein sequences, listed by entry. Tags and fused reporters are not part of them. Residues count along the entry.
UniProt P05067, 672-711 limits assumed: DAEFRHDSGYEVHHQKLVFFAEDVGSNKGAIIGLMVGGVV

In patent US20100249408A1, “USE OF NOVEL COMPOUND HAVING AFFINITY FOR AMYLOID, AND PROCESS FOR PRODUCTION OF THE SAME” (NIHON MEDI-PHYSICS CO., LTD., priority 2007, published 2010):

Target: T1, amyloid (aggregated Aβ1-40) (Homo sapiens, UniProt P05067)
T1 construct: Aβ1-40 (Peptide Institute) was dissolved in phosphate buffer (pH 7.4); purchased Peptide Institute
Assay: Measurement of amyloid affinity: in vitro binding test, inhibition of [125I]3′-I-BTA-0 binding
Details: inhibition of [125I]3′-I-BTA-0 (400 pmol/L) binding to aggregated Aβ1-40 (1 μmol/L), pH 7.4, 22° C., 3 hours
Protocol: Affinity of the present compounds with amyloid was examined by the following in vitro binding tests.
(1) Aβ1-40 (Peptide Institute) was dissolved in phosphate buffer (pH 7.4) and shaken at 37° C. for 62-72 hours, to obtain a suspension of aggregated Aβ (concentration: 1 mg/mL equivalent, hereinafter referred to as amyloid suspension in these Examples).
(3) According to the method described in a literature (Wang, Y., et al., J. Labeled Compounds Radiopharmaceut. 44, 5239 (2001)), [^125I]2-(3′-iodo-4′-aminophenyl)benzothiazole (hereinafter referred to as [^125I]3′-I-BTA-0) was prepared from a labeling precursor 2-(4′-aminophenyl)benzothiazole, and dissolved in ethanol. […]
(7) The glass fiber filter used for the filtration of each sample solution was washed with a 0.1% bovine serum albumin-containing phosphate buffer (pH 7.4) (0.5 mL×5), and radioactivity of the glass fiber filter was measured with an autowell gamma system (manufactured by Aloka, Type: ARC-301B).
(8) Separately, a solution containing 15 μmol/L of 6-Me-BTA-2, 400 pmol/L of [^125I]3′-I-BTA-0 and 1 μmol/L of Aβ1-40 in a 0.1% bovine serum albumin-containing phosphate buffer (pH 7.4) was prepared and subjected to the same procedures as described above in (6) and (7) to measure a radioactivity level. […]

Cc1ccc2c(c1)sc(-c1ccc(N(C)C)cc1)[n+]2C [Thioflavin T, reference compound]
IC50: > 1 µM
